The values below come from patent US20260069588A1, “VEPDEGESTRANT FOR USE IN TREATING CANCER” (Arvinas Operation, Inc., priority 2022, published 2026).

The subject of the data set is ST941/HI PDX model, ESR1 (Y537S). Conditions: mice.

Take `C[C@]12CC[C@@H]3c4ccc(O)cc4C[C@@H](CCCCCCCCC[S+]([O-])CCCC(F)(F)C(F)(F)F)[C@H]3[C@@H]1CC[C@@H]2O` (some centres unmarked) [fulvestrant, reference compound]: the “terminal plasma level above reported clinical Cmax (500 mg IM)” value is reported as “approximately 5 fold”. Also, the terminal plasma levels (fulvestrant regimen) amounted to 250 nM.
